Source: article PMC5249144, “T Cell Subset and Stimulation Strength-Dependent Modulation of T Cell Activation by Kv1.3 Blockers” (PLoS ONE, 2017)

By UniProt entry, the sequences of proteins in these tests, tags left out.
UniProt P22001, whole entry: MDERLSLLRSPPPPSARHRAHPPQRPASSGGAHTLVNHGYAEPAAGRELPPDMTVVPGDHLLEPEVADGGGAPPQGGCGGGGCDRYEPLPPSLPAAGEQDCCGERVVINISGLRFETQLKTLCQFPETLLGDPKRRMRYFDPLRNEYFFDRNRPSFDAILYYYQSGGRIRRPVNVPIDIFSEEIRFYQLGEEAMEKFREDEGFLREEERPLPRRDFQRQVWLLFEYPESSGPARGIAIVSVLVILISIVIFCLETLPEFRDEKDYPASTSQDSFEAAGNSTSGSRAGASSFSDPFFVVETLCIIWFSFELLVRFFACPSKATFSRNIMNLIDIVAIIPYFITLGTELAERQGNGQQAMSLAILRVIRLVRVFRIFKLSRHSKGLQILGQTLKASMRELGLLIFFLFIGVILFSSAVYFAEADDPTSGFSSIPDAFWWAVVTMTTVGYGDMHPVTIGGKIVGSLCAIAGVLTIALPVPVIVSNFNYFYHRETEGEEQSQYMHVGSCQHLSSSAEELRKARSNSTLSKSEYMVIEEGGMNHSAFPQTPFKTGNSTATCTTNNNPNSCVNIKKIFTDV

Assays:
CD4 T cell [1] = assay: Thapsigargin stimulated CD4 T cell proliferation; type: cell-based, human; conditions: thapsigargin (10μM or other concentrations, 20 hours)
Protocol: (§1) Heparinized human blood was diluted with an equal volume of IMDM medium (Life Technologies) supplemented with 2% normal human A/B serum and plated at 200μl/well in 96-well plates for thapsigargin (Alomone) stimulation. CD4 T cells were plated at 5 x 10^5 cells/well in 96-well plates with 200μl medium/well. Blood or T cell samples were pre-treated with blockers or inhibitors for 30 minutes prior to stimulation with thapsigargin at 10μM or other concentrations as indicated for 20 hours. Cytokines in culture supernatants were measured as described in cytokine detection section.
Proliferation of T cells was measured by overnight pulsing with 1μCi/well of ^3H-thymidine (Perkin Elmer). Cells with incorporated radioactive thymidine were harvested onto glass fiber filter plates (Perkin Elmer). Filter plates were soaked with scintillant (Perkin Elmer) and radioactivity was counted using a Topcount (Packard).

CD4 T cell [2] = assay: Thapsigargin stimulated CD4 T cell IL-2 production; type: cell-based, human; conditions: thapsigargin (10μM or other concentrations, 20 hours), ELISA, read-out: IL-2, Potency (IC50)
Protocol: as §1
Cytokines in supernatants collected from blood or T cell cultures were measured with ELISA or electrochemiluminescent assays. IL-2 was measured by ELISA using the human IL-2 Quantikine Kit (R&D Systems). Other cytokines were detected using multiplex human cytokine electro-chemiluminescent kit (Meso Scale Discovery).

[3] = target: T1, human Kv1.3 channels on transfected CHO cells (Homo sapiens, UniProt P22001); assay: Manual patch clamp, recombinant human Kv1.3 in stably transfected CHO cells; type: cell-based; conditions: manual whole-cell patch clamp, room temperature (22–24°C), step to +40mV (some +20 or +30mV), holding –80mV, 0.1% BSA, pH 7.4
T1 construct: expressed in transfected cells

[4] = system: House dust mite-specific T cell; type: cell-based, human; conditions: 3 h
Protocol: (§2) T cells were cultured in 96-well plates (Thermo Scientific) with 200μl medium/well. Culture medium was RPMI-1640 medium supplemented with 2% human A/B serum (Valley Biomedical Prod & Srv Inc.), 2 mM glutamine, 1mM sodium pyruvate, 10mM HEPES, 1mM MEM nonessential amino acid solution, and 100 U/ml each of penicillin G and streptomycin (all culture reagents from Life Technologies except for human serum). T cells were pre-treated with Kv1.3 blockers and other inhibitors for 30 minutes before stimulation. All assays were conducted with samples in duplicates or triplicates.
For T cell pan-activation with beads coated with anti-CD3 and anti-CD28 (eBioscience), T cells at 2 x 10^5 cells/well in 96-well flat-bottom plates were stimulated overnight with anti-CD3 and anti-CD28 coated beads (Miltenyi Biotec) at 2:1 bead/cell ratio or as indicated. For T cell pan-activation with anti-CD3, T cells at 5 x 10^4 cells/well in 96-well U-bottom plates were stimulated for 2 days with 1ng/ml of anti-CD3 in the presence of mitomycin C treated autologous PBMC at 1:1 T cell/PBMC ratio. […]
(§3) Proliferation of T cells was measured by overnight pulsing with 1μCi/well of ^3H-thymidine (Perkin Elmer). […] Filter plates were soaked with scintillant (Perkin Elmer) and radioactivity was counted using a Topcount (Packard).

[5] = target: T2, endogenous Kv1.3 in human CD4 T cells (Homo sapiens, UniProt P22001); assay: Manual patch clamp, endogenous Kv1.3 currents in human primary CD4 T cells; type: cell-based; conditions: OsK1 on endogenous Kv1.3, human primary CD4 T cells, manual whole-cell patch clamp, room temperature, step to +40mV, holding –80mV, pH 7.4
T2 construct: OsK1 potency on endogenous Kv1.3 in human CD4 T cells; endogenous in cells; host or cells: human primary CD4 T cells purified from donor PBMC
Protocol: The potency of OsK1 peptide against voltage-gated currents in human primary CD4 T cells and CHO cells stably transfected with recombinant human Kv1.3 was measured in a manual patch clamp assay, as previously described. Briefly, T cells or transfected CHO cells were plated onto glass coverslips in a bath on the stage of an inverted microscope and perfused (approximately 1ml/min) with extracellular solution of the following composition: 137mM NaCl, 2mM CaCl2, 5.4mM KCl, 1mM MgCl2, 5mM glucose, and 10mM HEPES, 0.1% bovine serum albumin, pH 7.4. […] All recordings were made at room temperature (22–24°C) using a Multiclamp 700A amplifier and pClamp 9 software (Axon Instruments). Outward potassium currents were measured using the whole-cell configuration of the patch-clamp technique. […]
CD4 T cells were purified from human PBMC as described in the T cell purification section. […] Expression levels of CD25 and CD69 on activated T cells were monitored in flow cytometer after staining with fluorescent dye conjugated specific antibodies (eBiosciences). […]
To investigate the role of Kv1.3 in T cell activation, we tested different Kv1.3 blockers in our T cell assays. […] The IC50 values of different Kv1.3 blockers determined on CHO transfected cells were similar to those published in other studies.

CD4 naïve cell = conditions: 3 h
From the text: (§4) Human PBMC were purified from donor blood by Ficoll-Paque (GE Healthcare) density centrifugation. CD4 or CD8 T cells were purified from human PBMC by negative selection using human CD4 or CD8 T cell isolation kit (Miltenyi Biotec) respectively. Naïve or memory CD4 T cells were isolated from CD4 T cells by negative selection using human naïve or memory CD4 T cell isolation kit (Miltenyi Biotec) respectively. Central and effector memory CD4 T cells were separated from memory CD4 T cells using biotinylated anti-CCR7 (BD Biosciences) and streptavidin coated magnetic beads (Miltenyie Biotec). Cells after treatment with antibodies and magnetic beads were purified with autoMACS (Miltenyi Biotec).
as §2, with “triplicates. […]” for “triplicates.”
as §3
(§5) In order to further understand the activity profile of Kv1.3 blockers on T cells, we compared the effects of Kv1.3 blockers on primary naïve, central memory and effector memory CD4 T cells. […] Purified T cells were activated with anti-CD3 in the presence of mitomycin C treated PBMC and the effects of Kv1.3 blockers on T cell proliferation were monitored and compared to cyclosporine A and BTP2.

CD4 Tem cell = conditions: 3 h
From the text: as §4
as §2, with “triplicates. […]” for “triplicates.”
as §3, §5

CD4 Tcm cell = conditions: 3 h
From the text: as §4
as §2, with “triplicates. […]” for “triplicates.”
as §3, §5

SMILES: CC[C@H](C)[C@@H]1NC(=O)[C@H](CCCCN)NC(=O)[C@@H](NC(=O)[C@H](CCCCN)NC(=O)[C@@H](NC(=O)[C@H](CC(N)=O)NC(=O)[C@@H](NC(=O)[C@@H](NC(=O)[C@@H](NC(=O)CN)C(C)C)[C@@H](C)CC)[C@@H](C)CC)C(C)C)CSSC[C@@H]2NC(=O)[C@H](CCCCN)NC(=O)CNC(=O)[C@H](Cc3ccccc3)NC(=O)[C@H](CCCNC(=N)N)NC(=O)[C@H](CCSC)NC(=O)CNC(=O)[C@H](C)NC(=O)[C@H](CCCCN)NC(=O)[C@H](CCCCN)NC(=O)[C@@H]3CSSC[C@@H](C(=O)N[C@H](C(=O)N4CCC[C@H]4C(=O)N[C@@H](CCCCN)C(=O)O)[C@@H](C)O)NC(=O)[C@H](Cc4c[nH]cn4)NC(=O)[C@H](CSSC[C@H](NC(=O)[C@H](CCC(N)=O)NC(=O)[C@H](CCCNC(=N)N)NC(=O)[C@H](CO)NC1=O)C(=O)N[C@@H](CC(C)C)C(=O)N[C@@H](CCC(=O)O)C(=O)N1CCC[C@H]1C(=O)N3)NC(=O)[C@H](CCCCN)NC(=O)CNC(=O)[C@H](CC(N)=O)NC(=O)[C@H](CCSC)NC2=O [OsK1]
- Proliferation, Efficacy (%Inhibition) (CD4 T cell [1]): 35.5 ± 3.7%
- IC50 (CD4 T cell [1]; read-out: Proliferation, Potency (IC50)): 40 ± 2.8 pM
- IC50 (CD4 T cell [2]): 6.8 ± 3.1 pM
- IC50 [3]: 19 ± 4 pM
- IC50 [4]: 41.6 ± 26.1 pM
- Proliferation, Efficacy (%Inhibition) ([4]; 10 μg/ml): 58.9 ± 4.3%
- IC50 [5]: 16.2 ± 2.3 pM
- IC50 (CD4 naïve cell): 776 ± 180 pM
- IC50 (CD4 Tem cell): 51.1 ± 5.7 pM
- IC50 (CD4 Tcm cell): 95.6 ± 41.8 pM
